Laboratory results published in patent EP4731682A1 (dated 2026).

By UniProt entry, the sequences of proteins in these tests, tags left out. Residues count along the entry.
UniProt Q08722, 19-323: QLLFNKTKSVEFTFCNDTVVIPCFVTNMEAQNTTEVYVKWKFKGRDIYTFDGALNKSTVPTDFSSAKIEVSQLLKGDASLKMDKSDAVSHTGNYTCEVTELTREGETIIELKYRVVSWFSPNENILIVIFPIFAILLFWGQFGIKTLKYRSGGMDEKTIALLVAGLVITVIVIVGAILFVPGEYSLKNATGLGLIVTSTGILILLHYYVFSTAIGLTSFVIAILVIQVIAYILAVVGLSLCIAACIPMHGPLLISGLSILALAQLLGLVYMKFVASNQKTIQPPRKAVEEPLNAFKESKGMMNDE

B1: TgPS-E_v1 (Fc fusion)
chain: MMTGTIETTGNISAEKGGSIILQCHLSSTTAQVTQVNWEQQDQLLAICNADLGWHISPSFKDRVAPGPGLGLTLQSLTVNDTGEYFCIYHTYPDGTYTGRIFLEVLESSVAEHGARASESKYGPPCPPCPAPEFLGGPSVFLFPPKPKDTLMISRTPEVTCVVVDVSQEDPEVQFNWYVDGVEVHNAKTKPREEQFNSTYRVVSVLTVLHQDWLNGKEYKCKVSNKGLPSSIEKTISKAKGQPREPQVYTLPPSQEEMTKNQVSLTCLVKGFYPSDIAVEWESNGQPENNYKTTPPVLDSDGSFFLYSRLTVDKSRWQEGNVFSCSVMHEALHNHYTQKSLSLSLGKAAASSGGGGSGGGGSEE[about 120 residues not shown]KPSGSGGSGGSGGSGGSGDSPDRPWNPPTFSPALLVVTEGDNATFTCSFSNTSESFVLNWYRMSPSNQTDKLAAFPEDRSQPGQDCRFRVTQLPNGRDFHMSVVRARRNDSGTYLCGAISLAPKAQIKESLRAELRVTERRAEVPTAHPSPSPRPAGQFQTLV
notes: Two identical chains; Biotinylated in the Nectin-2 ELISA
B2: TgPS-D_v1 (Fc fusion)
chain: MMTGTIETTGNISAEKGGSIILQCHLSSTTAQVTQVNWEQQDQLLAICNADLGWHISPSFKDRVAPGPGLGLTLQSLTVNDTGEYFCIYHTYPDGTYTGRIFLEVLESSVAEHGARGSGGSGGSGGSGGSGDSPDRPWNPPTFSPALLVVTEGDNATFTCSFSNTSESFVLNWYRMSPSNQTDKLAAFPEDRSQPGQDCRFRVTQLPNGRDFHMSVVRARRNDSGTYLCGAISLAPKAQIKESLRAELRVTERRAEVPTAHPSPSPRPAGQFQTLVASESKYGPPCPPCPAPEFLGGPSVFLFPPKPKDTLMISRTPEVTCVVVDVSQEDPEVQFNWYVDGVEVHNAKTKPREEQFNSTYRVVSVLTVLHQDWLNGKEYKCKVSNKGLPSSIEKTISKAKGQPREPQVYTLPPSQEEMTKNQVSLTCLVKGFYPSDIAVEWESNGQPENNYKTTPPVLDSDGSFFLYSRLTVDKSRWQEGNVFSCSVMHEALHNHYTQKSLSLSLGKAAASSGGGGSGGGGSEE[about 120 residues not shown]
notes: as for B1
B3: TgPS-C2_v1 (Fc fusion)
chain: DSPDRPWNPPTFSPALLVVTEGDNATFTCSFSNTSESFVLNWYRMSPSNQTDKLAAFPEDRSQPGQDCRFRVTQLPNGRDFHMSVVRARRNDSGTYLCGAISLAPKAQIKESLRAELRVTERRAEVPTAHPSPSPRPAGQFQTLVGSGGSGGSGGSGGSGMMTGTIETTGNISAEKGGSIILQCHLSSTTAQVTQVNWEQQDQLLAICNADLGWHISPSFKDRVAPGPGLGLTLQSLTVNDTGEYFCIYHTYPDGTYTGRIFLEVLESSVAEHGARASESKYGPPCPPCPAPEFLGGPSVFLFPPKPKDTLMISRTPEVTCVVVDVSQEDPEVQFNWYVDGVEVHNAKTKPREEQFNSTYRVVSVLTVLHQDWLNGKEYKCKVSNKGLPSSIEKTISKAKGQPREPQVYTLPPSQEEMTKNQVSLTCLVKGFYPSDIAVEWESNGQPENNYKTTPPVLDSDGSFFLYSRLTVDKSRWQEGNVFSCSVMHEALHNHYTQKSLSLSLGKAAASSGGGGSGGGGSEE[about 120 residues not shown]
notes: as for B1
B4: TgPS-F_v1 (Fc fusion)
chain: DSPDRPWNPPTFSPALLVVTEGDNATFTCSFSNTSESFVLNWYRMSPSNQTDKLAAFPEDRSQPGQDCRFRVTQLPNGRDFHMSVVRARRNDSGTYLCGAISLAPKAQIKESLRAELRVTERRAEVPTAHPSPSPRPAGQFQTLVGSGGSGGSGGSGGSGEE[about 120 residues not shown]KPSASESKYGPPCPPCPAPEFLGGPSVFLFPPKPKDTLMISRTPEVTCVVVDVSQEDPEVQFNWYVDGVEVHNAKTKPREEQFNSTYRVVSVLTVLHQDWLNGKEYKCKVSNKGLPSSIEKTISKAKGQPREPQVYTLPPSQEEMTKNQVSLTCLVKGFYPSDIAVEWESNGQPENNYKTTPPVLDSDGSFFLYSRLTVDKSRWQEGNVFSCSVMHEALHNHYTQKSLSLSLGKAAASSGGGGSGGGGSMMTGTIETTGNISAEKGGSIILQCHLSSTTAQVTQVNWEQQDQLLAICNADLGWHISPSFKDRVAPGPGLGLTLQSLTVNDTGEYFCIYHTYPDGTYTGRIFLEVLESSVAEHGAR
notes: as for B1
B5: TgPS-C1_v1 (Fc fusion)
chain: DSPDRPWNPPTFSPALLVVTEGDNATFTCSFSNTSESFVLNWYRMSPSNQTDKLAAFPEDRSQPGQDCRFRVTQLPNGRDFHMSVVRARRNDSGTYLCGAISLAPKAQIKESLRAELRVTERRAEVPTAHPSPSPRPAGQFQTLVGSGGSGGSGGSGGSGMMTGTIETTGNISAEKGGSIILQCHLSSTTAQVTQVNWEQQDQLLAICNADLGWHISPSFKDRVAPGPGLGLTLQSLTVNDTGEYFCIYHTYPDGTYTGRIFLEVLESSVAEHGARAS[human IgG1 Fc with changes not shown]AAASSGGGGSGGGGSEE[about 120 residues not shown]
notes: Two identical chains; Expressed in CHO-S cells; Biotinylated in the Nectin-2 ELISA
B6: PD-1/G4Fc (Fc fusion)
chain: DSPDRPWNPPTFSPALLVVTEGDNATFTCSFSNTSESFVLNWYRMSPSNQTDKLAAFPEDRSQPGQDCRFRVTQLPNGRDFHMSVVRARRNDSGTYLCGAISLAPKAQIKESLRAELRVTERRAEVPTAHPSPSPRPAGQFQTLVESKYGPPCPPCPAPEFLGGPSVFLFPPKPKDTLMISRTPEVTCVVVDVSQEDPEVQFNWYVDGVEVHNAKTKPREEQFNSTYRVVSVLTVLHQDWLNGKEYKCKVSNKGLPSSIEKTISKAKGQPREPQVYTLPPSQEEMTKNQVSLTCLVKGFYPSDIAVEWESNGQPENNYKTTPPVLDSDGSFFLYSRLTVDKSRWQEGNVFSCSVMHEALHNHYTQKSLSLSLG
notes: PD-1 extracellular domain fused to an IgG4 Fc; also called Biotin-PD-1/G4Fc

Each binder was assayed against T1, recombinant human Nectin-2-ECD/Fc fusion protein (human, UniProt Q92692 32-360) (assay: ELISA; Nectin-2-ECD/Fc coated 1 ug/mL, biotinylated binder, HRP-avidin (FIG. 2B)).
T1 construct: extracellular domain; Bought reagent; not shown: Fc of the bought fusion protein
T1 sequence (looked up): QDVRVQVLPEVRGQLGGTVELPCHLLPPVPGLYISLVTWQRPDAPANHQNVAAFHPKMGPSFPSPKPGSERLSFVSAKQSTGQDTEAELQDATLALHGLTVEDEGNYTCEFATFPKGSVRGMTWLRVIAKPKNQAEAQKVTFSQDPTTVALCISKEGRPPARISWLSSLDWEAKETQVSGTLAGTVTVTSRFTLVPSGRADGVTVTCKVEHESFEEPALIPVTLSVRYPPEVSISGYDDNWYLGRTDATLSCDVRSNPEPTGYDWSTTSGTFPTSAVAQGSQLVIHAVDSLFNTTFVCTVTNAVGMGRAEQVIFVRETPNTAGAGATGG

Binding result, binds:
B1
B2
B3
B4

These binders were tested against T2, CD47 expressed on transfected cells (CD47 tf CHO-S cells) (human, UniProt Q08722) (assay: flow cytometry on CD47 tf CHO-S cells, PE anti-human IgG Fc (FIG. 3B)).
T2 construct: whole, on cells; also called CD47 tf cells

Binding result, binds:
B1
B2
B5
B3
B4

What follows are binders tested against T3, PD-L1 expressed on transfected cells (PD-L1 tf CHO-S cells; PD-L1 tf OE19 cells; PD-L1 tf aAPC/CHO-K1 cells) (human) (assay: flow cytometry on PD-L1 tf CHO-S cells, PE anti-human IgG Fc (FIG. 3A)).
T3 construct: whole, on cells; The cell line of each entry is named under assay; also called PD-L1 tf cells

Binding result, binds:
B1
B2
B5
B6
B3
B4

These binders were tested against T4, recombinant PVR-ECD/Fc fusion protein (human, biotinylated (Biotin-PVR-ECD/Fc; sites not stated)) (assay: ELISA; binder coated 1 ug/mL, serially diluted Biotin-PVR-ECD/Fc, HRP-avidin (FIG. 2A)).
T4 construct: also called Biotin-PVR-ECD/Fc

Binding result, binds:
B1
B2
B5
B3
B4
